Assay results taken from ChEMBL document CHEMBL1136486, “Novel 3,4-dihydroquinolin-2(1H)-one inhibitors of human glycogen phosphorylase a” (Bioorg Med Chem Lett, 2003).

Tests used:
[1] = molecular target: T1, Glycogen phosphorylase, muscle form (Homo sapiens, UniProt P11217); test: Inhibitory concentration against recombinant human muscle glycogen phosphorylase a (HMGPa); assay type: single protein
T1 sequence (P11217 whole entry): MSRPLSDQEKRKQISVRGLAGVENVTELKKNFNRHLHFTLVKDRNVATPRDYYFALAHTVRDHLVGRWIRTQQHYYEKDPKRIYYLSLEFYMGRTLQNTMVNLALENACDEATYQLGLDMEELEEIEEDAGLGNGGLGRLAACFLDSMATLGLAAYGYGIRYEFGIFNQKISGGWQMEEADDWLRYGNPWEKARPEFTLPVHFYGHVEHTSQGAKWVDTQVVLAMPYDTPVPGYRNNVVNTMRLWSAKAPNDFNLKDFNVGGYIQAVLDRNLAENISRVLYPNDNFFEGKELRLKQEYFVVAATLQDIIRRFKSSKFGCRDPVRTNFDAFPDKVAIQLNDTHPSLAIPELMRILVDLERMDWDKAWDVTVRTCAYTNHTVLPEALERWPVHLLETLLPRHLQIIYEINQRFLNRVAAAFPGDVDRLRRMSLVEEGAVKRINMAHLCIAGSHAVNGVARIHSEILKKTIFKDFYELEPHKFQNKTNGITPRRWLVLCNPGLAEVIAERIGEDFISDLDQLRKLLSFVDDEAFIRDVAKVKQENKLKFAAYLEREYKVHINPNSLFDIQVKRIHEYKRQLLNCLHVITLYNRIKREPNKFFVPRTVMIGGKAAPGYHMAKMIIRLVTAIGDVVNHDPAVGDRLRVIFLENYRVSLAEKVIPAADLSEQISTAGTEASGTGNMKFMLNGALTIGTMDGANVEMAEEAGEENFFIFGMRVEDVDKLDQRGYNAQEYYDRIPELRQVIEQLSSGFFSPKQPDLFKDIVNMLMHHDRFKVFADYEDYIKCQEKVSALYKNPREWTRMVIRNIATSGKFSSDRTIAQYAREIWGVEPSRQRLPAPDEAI

[2] = molecular target: T2, Glycogen phosphorylase, liver form (Homo sapiens, UniProt P06737); test: Inhibitory concentration against recombinant human liver glycogen phosphorylase a (HLGPa)
T2 sequence (P06737 whole entry): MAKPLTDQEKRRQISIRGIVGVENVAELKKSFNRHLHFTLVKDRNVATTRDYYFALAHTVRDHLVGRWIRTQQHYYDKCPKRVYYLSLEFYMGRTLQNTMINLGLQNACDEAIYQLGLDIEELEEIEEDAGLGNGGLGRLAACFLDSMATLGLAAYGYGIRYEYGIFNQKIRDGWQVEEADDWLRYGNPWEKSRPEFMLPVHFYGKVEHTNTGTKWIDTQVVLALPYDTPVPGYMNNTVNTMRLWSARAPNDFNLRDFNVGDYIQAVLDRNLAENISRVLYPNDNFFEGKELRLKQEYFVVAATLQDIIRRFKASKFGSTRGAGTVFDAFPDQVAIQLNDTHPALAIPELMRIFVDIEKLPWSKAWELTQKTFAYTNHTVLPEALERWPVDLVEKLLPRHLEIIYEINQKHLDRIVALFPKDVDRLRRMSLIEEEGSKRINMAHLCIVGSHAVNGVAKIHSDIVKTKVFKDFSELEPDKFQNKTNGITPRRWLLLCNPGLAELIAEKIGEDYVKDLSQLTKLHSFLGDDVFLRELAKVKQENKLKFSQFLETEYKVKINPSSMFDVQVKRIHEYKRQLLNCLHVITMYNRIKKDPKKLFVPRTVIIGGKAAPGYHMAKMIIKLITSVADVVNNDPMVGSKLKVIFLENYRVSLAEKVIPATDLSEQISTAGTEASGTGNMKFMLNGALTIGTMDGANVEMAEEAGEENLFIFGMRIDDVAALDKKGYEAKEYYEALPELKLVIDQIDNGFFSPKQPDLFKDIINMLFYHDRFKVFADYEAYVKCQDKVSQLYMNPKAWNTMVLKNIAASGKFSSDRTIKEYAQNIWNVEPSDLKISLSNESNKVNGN

| SMILES | IC50 [1] | IC50 [2] |
| --- | --- | --- |
| O=C(N[C@@H]1CCc2ccccc2NC1=O)c1cc2cc(Cl)ccc2[nH]1 | 83 nM | 99 nM |
| O=C(NC1CCc2ccccc2NC1=O)c1cc2cc(Cl)ccc2[nH]1 (stereo unspecified) | 55 nM | 105 nM |
| CN1C(=O)C(NC(=O)c2cc3cccc(Cl)c3[nH]2)Cc2ccccc21 (stereo unspecified) | 88 nM | – |
| O=C(N[C@H]1CCc2ccccc2NC1=O)c1cc2cc(Cl)ccc2[nH]1 | 240 nM | – |
